pIC50: −log10 of the molar value.
Tests used:
CYP 2C9 = CYP 2C9 (Homo sapiens, UniProt P11712); assay: Hepatic toxicity: Diclofenac 4′-hydroxylase in human hepatic microsomes
Protocol: (§1) After incubating at 37° C. for 20 min, 200 μl of each resulting solution was mixed with 100 μl of acetonitrile, and analyzed with LC-MS (LC column: Luna2 C8, 2×100 mm, flow velocity: 0.2 ml/min, MS system: Quattro LC (micromass)) using a 5% MeOH aqueous solution containing 0.1% formic acid as an eluent.

Chains of the proteins cited; added tags and fusions are not shown.
UniProt P11712, whole entry: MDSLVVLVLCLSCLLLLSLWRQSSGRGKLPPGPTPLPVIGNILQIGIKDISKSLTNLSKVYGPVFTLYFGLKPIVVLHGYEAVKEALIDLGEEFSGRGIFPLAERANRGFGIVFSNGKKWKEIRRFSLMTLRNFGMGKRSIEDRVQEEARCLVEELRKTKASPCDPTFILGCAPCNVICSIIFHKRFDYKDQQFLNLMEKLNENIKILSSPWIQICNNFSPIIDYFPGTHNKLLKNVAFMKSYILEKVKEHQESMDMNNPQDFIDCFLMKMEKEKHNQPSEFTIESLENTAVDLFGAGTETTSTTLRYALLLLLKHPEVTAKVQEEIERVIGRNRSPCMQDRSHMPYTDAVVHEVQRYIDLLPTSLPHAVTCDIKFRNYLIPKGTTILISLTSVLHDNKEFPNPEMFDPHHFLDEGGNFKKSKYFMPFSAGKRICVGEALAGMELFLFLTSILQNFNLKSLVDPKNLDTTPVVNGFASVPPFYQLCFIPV
UniProt P33261, whole entry: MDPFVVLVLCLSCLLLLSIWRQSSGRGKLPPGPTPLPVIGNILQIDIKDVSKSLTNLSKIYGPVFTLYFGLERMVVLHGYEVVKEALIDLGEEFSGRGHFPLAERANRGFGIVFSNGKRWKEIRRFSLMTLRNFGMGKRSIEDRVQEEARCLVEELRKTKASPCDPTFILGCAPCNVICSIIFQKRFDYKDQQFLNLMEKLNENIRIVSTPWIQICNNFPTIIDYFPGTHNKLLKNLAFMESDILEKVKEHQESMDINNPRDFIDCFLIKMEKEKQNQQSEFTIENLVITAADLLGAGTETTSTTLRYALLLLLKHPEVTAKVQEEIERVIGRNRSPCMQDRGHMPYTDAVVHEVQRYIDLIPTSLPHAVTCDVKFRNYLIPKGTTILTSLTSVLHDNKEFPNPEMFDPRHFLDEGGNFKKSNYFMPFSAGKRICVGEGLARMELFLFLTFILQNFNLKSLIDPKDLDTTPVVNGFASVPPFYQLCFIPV

CYP 2C19 = CYP 2C19 (Homo sapiens, UniProt P33261); assay: Hepatic toxicity: Mephenytoin 4-hydroxylase in human hepatic microsomes
Protocol: as §1

OC(Cn1cncn1)(Cn1cncn1)c1ccc(F)cc1F [Fluconazole, reference compound]
pIC50 (CYP 2C9): 4.33 | pIC50 (CYP 2C19): 5.15
